The list shows a part of the results. Activity calls are given as the source filed them.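 How the source made its calls: active means lowest replicate activity score at least 50, where 100 means six control SD above control mean; inconclusive means lowest score under 50 but half or more replicates reach 50; inactive means the rest.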

This experiment can be described thus: polyadenylation inhibitors in yeast reporter cells, primary screen, luminescence, S. cerevisiae (AID 1875).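 Further: yeast exposed to compound for 9 h at 30 °C; higher score means more reporter readthrough which indicates perturbed polyadenylation.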 The conditions noted are these: S. cerevisiae SKY197-pL101 polyadenylation reporter, beta-gal luminescence; at 12 µM; stronger effect = higher value; efflux-impaired pdr1/pdr3 knockout yeast; score 100 = 6 SD above DMSO.
Consider `O=C(OC1CN2CCC1CC2)C12CC3CC(CC(C3)C1)C2` (centres undefined), for which the activity score was inactive: 10.9%.

In the case of `Cc1cc(=O)[nH]c(N[N+](=O)[O-])n1`, the activity score was inactive: 3.92%.

`CCN(CC)CCCOC(=O)C(O)(c1ccccc1)c1ccccc1`: the activity score is inactive: -0.909%.

As to `Cc1c2c(nc3ccccc13)SC(C(Cl)Cl)C2` (centres undefined), the activity score was inactive: -13.7%.

For `COc1ccc2nc(NP(=O)(c3ccccc3)c3ccccc3)sc2c1`, the activity score is inactive: 4.6%.

Consider `COc1cc(I)ccc1[As](=O)(O)O`, for which the activity score is inactive: -6.27%.

Regarding `COc1ccc(N/C(=N/P(=O)(N2CCOCC2)N2CCOCC2)N2CCOCC2)cc1`, the activity score is inactive: -6.39%.

Regarding `O=[As](O)(c1ccc(O)cc1)c1ccccc1O`, the activity score is inactive: 17.7%.

In the case of `C[As](=O)(O)c1cccc(C(=O)O)c1`, the activity score was inactive: -1.05%.

Consider `O=[N+]([O-])c1cc([N+](=O)[O-])c(Nc2cccnc2)c([N+](=O)[O-])c1`, for which the activity score was inactive: -0.376%.

Regarding `O=[N+]([O-])c1ccc2c(c1)C=Nc1ccccc1O2`, the activity score is inactive: 8.32%.

As to `Cc1ccc2nc3c(c(C)c2c1)CC(C(Cl)Cl)S3` (centres undefined), the activity score is inactive: -47.2%.

In the case of `Cc1ccc(OP(=O)(Nc2ccc([N+](=O)[O-])cn2)Oc2ccc(C)cc2)cc1`, the activity score is inactive: -2.22%.

Take `CC(C)(C)c1ccc(OP(C)(=O)Nc2ccc(SC(F)(F)F)cc2)cc1` (centres undefined): the activity score was inactive: 14.5%.

For the compound `Cc1cccc(C)c1OP(C)(N)=O` (centres undefined), the activity score is inactive: -9.63%.

As for `COc1ccccc1OP(C)(=O)Nc1ccc(C)cc1` (centres undefined), the activity score was inactive: 2.92%.

Consider `Cc1ccc(NP(C)(=O)Oc2ccccc2)c(C)c1` (centres undefined), for which the activity score is inactive: -5.97%.

Turning to `CC(C)c1ccc(OP(=O)(Nc2ccccn2)Oc2ccccc2F)cc1` (centres undefined), the activity score was inactive: 38.3%.

On to `CCOC(=O)c1ccc(NP(C)(=O)Oc2ccccc2)cc1` (centres undefined), for which the activity score is inactive: -7.22%.

Turning to `ClCCSc1nnc(-c2cccnc2)o1`, the activity score was inactive: 26%.

As to `Cc1cc(C)cc(OP(C)(N)=O)c1` (centres undefined), the activity score was inactive: 21.4%.

Regarding `CC(C)NC(=O)NP(=O)(Oc1ccccc1)Oc1ccccc1`, the activity score was inactive: 16.8%.

As for `COc1ccccc1OP(C)(=O)Nc1cc(Cl)ccc1C` (centres undefined), the activity score was inactive: 7.85%.

With `CCN(CC)C(=S)SC(NC=O)C(Cl)(Cl)Cl` (centres undefined), the activity score is inactive: 16.5%.

Turning to `COc1ccc(OP(C)(=O)Nc2cccc(F)c2)cc1` (centres undefined), the activity score was inactive: 21.8%.

Turning to `O=[N+]([O-])c1cc([N+](=O)[O-])c(-c2ccn[nH]2)s1`, the activity score is inactive: -23.8%.

Turning to `CCOC(=O)Nc1ccc([As](=O)(O)O)c(O)c1`, the activity score was inactive: -17.7%.

In the case of `CCCCOc1ccc(C(=O)NCC2(N3CCCCC3)CCCCC2)cc1OC`, the activity score was inactive: -16.4%.

In the case of `Cc1cc(SC(NC(=O)c2ccccc2)C(Cl)(Cl)Cl)nc(C(C)C)n1` (centres undefined), the activity score was inactive: -23.7%.

Take `CCOC(=O)Nc1cccc([As](=O)(O)O)c1`: the activity score was inactive: 13.3%.

In the case of `CP(=S)(Nn1cnnc1)Oc1ccccc1` (centres undefined), the activity score is inactive: 12.6%.

`CP(=O)(Nc1ccccc1Br)Oc1ccccc1` (centres undefined): the activity score was inactive: -2.34%.

On to `O=[N+]([O-])c1ccc(Nc2ccc(Oc3ccc([N+](=O)[O-])cc3[N+](=O)[O-])cc2)c([N+](=O)[O-])c1`, for which the activity score is inactive: 16.2%.

With `Cc1cc(SC(NC=O)C(Cl)(Cl)Cl)ncn1` (centres undefined), the activity score was inactive: -20%.

`O=P(Nc1ccccn1)(c1cccc2ccccc12)c1cccc2ccccc12`: the activity score is inactive: -3.31%.

For the compound `COc1ccccc1OP(C)(=O)Nc1ccccc1` (centres undefined), the activity score is inactive: -7.19%.

Consider `COP1(=S)c2c(C)nn(CCC#N)c2N=C(c2ccc(F)cc2)N1C` (centres undefined), for which the activity score is inactive: -11.8%.

For the compound `CP(=O)(Nc1ccc(SC(F)(F)F)cc1)Oc1ccc(Cl)cc1` (centres undefined), the activity score is inactive: -22.5%.

With `Cc1cccc(C)c1OP(C)(=O)Nc1ccc(SC(F)(F)F)cc1` (centres undefined), the activity score was inactive: 14.4%.

In the case of `CP(=O)(Oc1ccccc1)OC(c1ccccc1)C(F)(F)F` (centres undefined), the activity score was inactive: 10.2%.

As for `CP(=O)(NC(=O)Nc1ccccc1)Oc1ccccc1` (centres undefined), the activity score was inactive: -13.5%.

Regarding `O=C(COc1ccccc1)OC1CN2CCC1CC2` (centres undefined), the activity score was inactive: 21.2%.

In the case of `CCc1ccc(OP(C)(=O)N2CCN(c3ccc([N+](=O)[O-])cc3)CC2)cc1` (centres undefined), the activity score was inactive: 14.8%.

`Cc1cc(C)cc(OP(C)(=O)Nc2ccc(SC(F)(F)F)cc2)c1` (centres undefined): the activity score was inactive: 25%.

With `O=C(Nc1ccncc1[N+](=O)[O-])c1ccc([N+](=O)[O-])cc1[N+](=O)[O-]`, the activity score is inactive: -17.9%.

In the case of `O=[N+]([O-])c1cc([N+](=O)[O-])c(O)c([N+](=O)[O-])c1.c1ccc(Oc2ccncc2)cc1`, the activity score was inactive: -9.21%.

`CCOC(=O)c1ccc(NP(C)(=O)Oc2ccc(OC)cc2)cc1` (centres undefined): the activity score was inactive: 1.42%.

For the compound `CCOC(=O)c1ccc(NC(=O)C(C)(CCl)SC)cc1` (centres undefined), the activity score was inactive: -8.59%.

For `CCOP(C)(=S)SCC(=O)NC(C)C(=O)O` (centres undefined), the activity score is inactive: 11.2%.

Regarding `O=C(OC1CN2CCC1CC2)c1cccc([N+](=O)[O-])c1` (centres undefined), the activity score is inactive: -16.4%.

As for `CP(=O)(Nc1ccccn1)Oc1ccc(Cl)cc1` (centres undefined), the activity score was inactive: 0.295%.

Consider `CCC(C)N(CC(C)C)C(=S)SC(NC(C)=O)C(Cl)(Cl)Cl` (centres undefined), for which the activity score was inactive: -8.04%.

As for `CCN(CC)CC(O)COC(=O)C(O)(c1ccccc1)C1CCCCC1` (centres undefined), the activity score is inactive: 0.987%.

`COc1ccc(C2=NCC(CBr)S2)cc1` (centres undefined): the activity score is inactive: -6.4%.

In the case of `COc1ccc(OP(C)(=O)Nc2ccc(Br)cc2)cc1` (centres undefined), the activity score was inactive: -7.09%.

As for `CC(=O)N1C2C3N(C(C)=O)C1C1N(C(C)=O)C(C(N1C(C)=O)N3C(C)=O)N2C(C)=O`, the activity score is inactive: -2.38%.

Consider `O=[N+]([O-])c1cccc2n[nH]nc12`, for which the activity score was inactive: 5.46%.

In the case of `COc1ccccc1OP(C)(=O)Nc1c(C)n(C)n(-c2ccccc2)c1=O` (centres undefined), the activity score was inactive: 6.92%.

In the case of `O=C(OCCCN1CCCC1)C(O)(c1ccccc1)C1CCCCC1` (centres undefined), the activity score was inactive: 13.4%.

On to `Cc1ccc(NP(=O)(Oc2ccccc2)Oc2ccccc2)nc1`, for which the activity score was inactive: 13.2%.

In the case of `CP(=O)(Oc1ccccc1)N1CCOC1=O` (centres undefined), the activity score was inactive: 2.09%.

For `CCc1ccc(OP(C)(=O)Nc2cccnc2)cc1` (centres undefined), the activity score is inactive: 21%.

For the compound `O=[N+]([O-])c1cc([N+](=O)[O-])c(CCNc2ccccc2)c([N+](=O)[O-])c1`, the activity score is inactive: -51%.

Turning to `CCc1nc2c(n1)c1c(non1O)c1c2no[n+]1[O-]`, the activity score is inactive: -10.3%.

Consider `COc1ccccc1OP(C)(=O)Nc1ccccc1Br` (centres undefined), for which the activity score is inactive: -4.98%.

Take `Nc1ccc([As](=O)(O)c2ccc(N)cc2)cc1`: the activity score is inactive: 19.4%.

For the compound `CC(C)(C)c1ccc(OP(C)(=O)O)cc1`, the activity score is inactive: 20.5%.

On to `C[N+]1=C2C=CC=CC=C2SC12C([N+](=O)[O-])=CC([N+](=O)[O-])=C[C-]2[N+](=O)[O-]` (centres undefined), for which the activity score was inactive: -21.9%.

As to `CCN(/C(=N/P(=O)(N1CCOCC1)N1CCOCC1)N1CCOCC1)c1ccc(OC)cc1`, the activity score was inactive: -3.27%.

With `CP(=O)(Nc1ccc(Cl)cc1)Oc1ccc(F)cc1` (centres undefined), the activity score was inactive: -6.69%.

For `CC(C)=N/N=C(\N)N[N+](=O)[O-]`, the activity score is inactive: 5.54%.

Consider `CN(C)C(=O)c1c([N+](=O)[O-])cc([N+](=O)[O-])cc1[N+](=O)[O-]`, for which the activity score was inactive: 12.3%.

Turning to `CN(C)C(=O)OCCc1n(C)cc[n+]1C`, the activity score was inactive: -3.39%.

Regarding `CC1CCN(C(=O)Oc2c(Cl)cc(Cl)c3cccnc23)CC1`, the activity score was inactive: -5.69%.

On to `Nc1ccc2c(ccc3cccnc32)n1.O=[N+]([O-])c1cc([N+](=O)[O-])c(O)c([N+](=O)[O-])c1`, for which the activity score is inactive: -1.33%.

`CCOC(=O)c1ccc(NP(C)(=O)Oc2ccc(Cl)cc2)cc1` (centres undefined): the activity score is inactive: -2.81%.

In the case of `O=C(Nc1cc([As](=O)(O)O)ccc1O)c1ccccc1`, the activity score was inactive: -2.16%.

As to `CP(=O)(OC12CC3CC(CC(C3)C1)C2)OC12CC3CC(CC(C3)C1)C2`, the activity score was inactive: -3.11%.

For `CC(C)(C)C(=O)NC(Sc1ccncn1)C(Cl)(Cl)Cl` (centres undefined), the activity score is inactive: -7.35%.

Regarding `O=[N+]([O-])c1ncn(CCn2ncnc2[N+](=O)[O-])n1`, the activity score is inactive: -25.9%.

On to `O=[N+]([O-])c1cccc(NC2=NCC(CBr)S2)c1` (centres undefined), for which the activity score is inactive: 18.7%.

Take `O=C(O)CNc1ccc([As](=O)(O)O)cc1`: the activity score is inactive: 14.1%.

For the compound `CC(=O)Nc1ccc([As](=O)(O)O)cc1`, the activity score was inactive: -6.7%.

For `O=C(O)c1ccccc1[As](=O)(O)O`, the activity score was inactive: -0.786%.

With `O=P(Nc1nc2ccc(Cl)cc2s1)(c1ccccc1)c1ccccc1`, the activity score was inactive: -11.6%.

Regarding `Cc1cc(C)cc(OP(C)(=O)Nc2cccc(C(F)(F)F)c2)c1` (centres undefined), the activity score is inactive: 7.16%.

For `Cc1cc(SC(NC(=O)c2ccc(F)cc2)C(Cl)(Cl)Cl)ncn1` (centres undefined), the activity score was inactive: -6.99%.

In the case of `CCOP(=O)(Nc1ccccc1)OCC`, the activity score is inactive: -6.83%.

For the compound `COc1ccccc1OP(C)(=O)Nc1ccc(C)c(C)c1` (centres undefined), the activity score is inactive: -6.44%.

Turning to `CN(C(=O)Cc1ccc(Cl)c(Cl)c1)[C@H]1CCCC[C@@H]1N1CCCC1`, the activity score is inactive: -11.2%.

With `Cc1ccc(NP(=O)(Oc2ccccc2F)Oc2ccccc2F)nc1`, the activity score was inactive: -0.459%.

Turning to `COc1ccc(OP(C)(=O)Nc2ccccc2Br)cc1` (centres undefined), the activity score was inactive: 2.02%.

For the compound `Cc1nc2ccc3ccccc3c2o1.O=[N+]([O-])c1cc([N+](=O)[O-])c(O)c([N+](=O)[O-])c1`, the activity score was inactive: -9.87%.

In the case of `O=[N+]([O-])c1cc([N+](=O)[O-])c(CCN2CCOCC2)c([N+](=O)[O-])c1`, the activity score was inactive: -12%.

`CCN(N=Nc1nonc1N)c1nonc1N`: the activity score was inactive: 5.43%.

In the case of `Nc1cccc2ccc([As](=O)(O)O)cc12`, the activity score was inactive: 0.717%.

Regarding `CP(=O)(Nc1ccc(Cl)cc1Cl)Oc1ccccc1` (centres undefined), the activity score is inactive: 0.319%.

`CP(=O)(OCCOc1ccccc1)OCCOc1ccccc1`: the activity score is inactive: -2.33%.

In the case of `NC(=O)c1cc([N+](=O)[O-])cc([N+](=O)[O-])c1N`, the activity score is inactive: 4.3%.
